Laboratory results published in PubChem BioAssay AID588856 (National Center for Advancing Translational Sciences (NCATS), 2011).
This is a selection; strong and weak results do not stand in their true shares. Activity calls are given as the source filed them. Calls follow the shape of the dose curve; as a rule, active = well fitted cell-killing curve with a large enough effect; inactive = no such curve, though single readings can be large or run the other way.

Test: qHTS for Inhibitors of TGF-b: Cytotox Counterscreen
Settings: HepG2 CAGA-GFP viability, ATP luminescence, 18 h; at 46.1 µM (top of the series)
Excerpt: TGF-b is a main component in the TGF-b signaling pathway which plays diverse roles in cellular and development pathways. TGF-b is mediated by transcription factors called "Smads". Although the Smad-dependent pathway is the primary canonical TGF-b signaling mode, TGF-b1 can also activate alternative signaling pathways, including those involving MAPK (ERK, JNK and p38). This interaction may mediate or enhance Smad-dependent responses, or can exert Smad-independent effects. The complexity of this signaling cascade allows the TGF-b superfamily to perform unique, overlapping or redundant functions. […] We aim to identify Smad3-small molecule antagonists using a quantitative high throughput screening (qHTS) approach. […]
Suspensions of trypsinized HEPG2 CAGA-GFP cells were dispensed into white, tissue culture-treated, solid 1536-well plates at 5uL/well (1000 cells/well final concentration) in DMEM medium supplemented with 1% FBS. […] Two uL of CellTiter Glo (Promega), a luminescence-based viability reagent, was dispensed, followed by a 10 minute room temperature incubation. The plates were then measured on a PerkinElmer ViewLux plate reader for luminescence (clear filter) using a 5 second exposure. The %Activity was determined from the corrected luminescence values. […]
Concentration-response curves were fitted to the signals arising from the resulting luminescence. […]

SMILES	activity change, negative = cytotoxicity
CCC(=O)N(c1ccccc1)C1(COC)CCN(CCn2nnn(CC)c2=O)CC1	inactive: 1.08%
CCC(=O)N(c1ccccc1)C1(COC)CCN(CCc2cccs2)CC1	inactive: -12.5%
